Bioassay records deposited in PubChem BioAssay by Broad Institute.
FGF22 binding = binders of recombinant human FGF22 by thermal shift. SYPRO orange fluorescence; percent of sucrose octasulfate shift, DMSO zero. Q9HCT0. AID 651658. activity (Tm shift, normalised), % at 9.99 µM. 340,000 tested, 1.5% active;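 active = mean Tm shift, scaled 0 neutral to 100 positive control, at about 1.3% or above, every replicate too, limit read from the data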
PDI turbidity = PDI (human) enzyme inhibition; P07237; PDI insulin aggregation turbidity, A650, 90 min; inhibition, % at 10 µM; 350,000 tested, 0.052% active; AID 588391;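 active = mean inhibition across replicates of 30% or more, whatever share of single replicates reach that level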
UUG fidelity = modulators of start codon recognition fidelity in yeast; AID 602363; hit rate 0.13% among 350,000; activity score, % at 18.7 µM; S. cerevisiae UUG-firefly luciferase reporter, luminescence/redox ratio;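 active = replicate mean at a twofold rise or more, about +100% in these data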;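 note: firefly luciferase made from a UUG start codon reports start codon fidelity; reporter light over untreated wells divided by growth signal over untreated wells; some hits fall short of that in this replicate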
SIRT5 block = blocks human SIRT5 desuccinylation of peptide. Q9NXA8. Purified SirT5, succinyl-peptide AMC, trypsin-coupled fluorescence. AID 652115. inhibition, % at 15 µM. 330,000 tested, 1.1% active; in the data active = inhibition above about 15%
S100A4 MyoIIA = blocks human S100A4 binding to myosin IIA peptide; P26447; S100A4/TAMRA-MyoIIA peptide fluorescence polarization; 360,000 tested, 0.14% active; inhibition, % at 10.7 µM;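 active = mean inhibition of at least 70% across replicates, with every replicate also reaching that level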
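incubation = readout 5 min after mixing, signal stable up to 60 min | system = S100A4 monomer protein | buffer or medium = HEPES pH 7.2 with CaCl2, KCl, NaCl, DTT, Triton | benchmarks = neutral control DMSO, positive control TFP | also added = fluorescent myosin IIA peptide, 5 nM | compound dosing = one concentration per compound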
ERp5 block = ERp5 (human) disulfide isomerase inhibition | 350,000 tested, 0.05% active | AID 651711 | inhibition, % at 9.99 µM | ERp5 insulin aggregation, absorbance 650 nm, 90 min | Q15084;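 active = mean replicate inhibition above about 25%, with every replicate also reaching it, limit read from the data, passing the limit was not always enough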
Starred values were filed as active, the others as inactive; / = no result given. This is a sample that favours compounds with a hit; in the whole collection about 2.2% have one here.

1. CN(C)C(/C=C/Nc1ccc(Br)cc1)=C(C#N)C#N
2. Oc1ccc(Cl)cc1Sc1cc(Cl)ccc1O
3. COc1cccc(/C=C/C(=O)OCC(=O)NCC2CCCO2)c1 (stereo unspecified)
4. COc1ccc(/C=C/C(=O)OCC(=O)NCC2CCCO2)cc1 (stereo unspecified)
5. COc1ccc(/C=C/C(=O)NC(=S)NCC2CCCO2)cc1 (stereo unspecified)

| assay / entry | 1 | 2 | 3 | 4 | 5 |
| --- | --- | --- | --- | --- | --- |
| FGF22 binding | 43* | 2.3* | / | 44* | 44* |
| PDI turbidity | 4 | 9 | 0 | -96 | 1 |
| UUG fidelity | / | -1 | -11 | / | / |
| SIRT5 block | -3 | 5 | / | 3 | 2 |
| S100A4 MyoIIA | -1 | 2 | / | 1 | -6 |
| ERp5 block | -6 | 2 | / | 3 | 2 |

6. C[C@@H]1CN([C@@H](C)CO)C(=O)c2cc(C3=CCCC3)cnc2O[C@@H]1CN(C)Cc1cccnc1
7. COc1ccc2c3c([nH]c2c1)[C@@H](CO)N(C(=O)CN(C)C)CC31CN(CC2CCCC2)C1
8. C#CCOc1ccccc1CNc1ccccc1
9. C[C@@H]1CN([C@@H](C)CO)C(=O)c2cc(C#Cc3cccc(F)c3)cnc2O[C@H]1CN(C)C(=O)c1ccccc1F
10. Cc1ccc(C(=O)COC(=O)C2CC3CCCC(C2)C3=O)cc1[N+](=O)[O-] (stereo unspecified)

| assay / entry | 6 | 7 | 8 | 9 | 10 |
| --- | --- | --- | --- | --- | --- |
| FGF22 binding | 0 | 0 | 43* | -1 | 0 |
| PDI turbidity | / | / | 8 | / | 1 |
| UUG fidelity | -9 | / | / | -25 | -20 |
| SIRT5 block | -3 | -2 | 10 | 5 | 2 |
| S100A4 MyoIIA | -34 | 4 | -16 | 4 | 140* |
| ERp5 block | 5 | 0 | -1 | 1 | 8 |

11. Cc1ccc([N+](=O)[O-])c(NC(=O)COC(=O)C2CC3CCCC(C2)C3=O)c1C (stereo unspecified)
12. O=C(NCCc1ccncc1)Nc1ccc(Cl)cc1
13. O=C(NCCc1ccncc1)Nc1ccc(F)cc1
14. CN(C)C(=O)[C@@H]1[C@@H](CO)[C@@H]2Cn3c(ccc(-c4ccccc4F)c3=O)[C@H]1N2C
15. CC(C)c1ccc(NC(=O)c2csnn2)cc1

| assay / entry | 11 | 12 | 13 | 14 | 15 |
| --- | --- | --- | --- | --- | --- |
| FGF22 binding | 0 | / | 0 | 0 | 0 |
| PDI turbidity | -1 | -1 | 8 | / | -3 |
| UUG fidelity | -10 | -6 | 0 | / | -40 |
| SIRT5 block | -13 | / | -4 | 0 | 3 |
| S100A4 MyoIIA | -4 | / | 103* | 4 | 5 |
| ERp5 block | -9 | / | 1 | 1 | 0 |

Looked up one by one from the list above (four):
12. O=C(NCCc1ccncc1)Nc1ccc(Cl)cc1
10. Cc1ccc(C(=O)COC(=O)C2CC3CCCC(C2)C3=O)cc1[N+](=O)[O-] (stereo unspecified)
6. C[C@@H]1CN([C@@H](C)CO)C(=O)c2cc(C3=CCCC3)cnc2O[C@@H]1CN(C)Cc1cccnc1
1. CN(C)C(/C=C/Nc1ccc(Br)cc1)=C(C#N)C#N

| assay / entry | 12 | 10 | 6 | 1 |
| --- | --- | --- | --- | --- |
| FGF22 binding | / | 0 | 0 | 43* |
| PDI turbidity | -1 | 1 | / | 4 |
| UUG fidelity | -6 | -20 | -9 | / |
| SIRT5 block | / | 2 | -3 | -3 |
| S100A4 MyoIIA | / | 140* | -34 | -1 |
| ERp5 block | / | 8 | 5 | -6 |

Additional results follow:
16. CC(C)c1ccc(NC(=O)c2snc3ccc(Cl)cc23)cc1
17. C[C@@H]1CCCCO[C@@H](CN(C)S(=O)(=O)c2cn(C)cn2)[C@H](C)CN([C@H](C)CO)C(=O)c2cc(NC(=O)Nc3ccc(C(F)(F)F)cc3)ccc2O1
18. CO[C@H]1CN(C)C(=O)c2cc(NC(=O)c3ccccc3)ccc2OC[C@H](C)N(C)C[C@H]1C
19. O=C(C[C@H]1C=C[C@H](NS(=O)(=O)c2ccccc2)[C@@H](CO)O1)NCc1ccccc1F
20. C/C(=N\OCc1ccc(C#N)cc1)c1ccccc1

| assay / entry | 16 | 17 | 18 | 19 | 20 |
| --- | --- | --- | --- | --- | --- |
| FGF22 binding | 44* | 0 | 0 | 0 | 44* |
| PDI turbidity | 3 | / | / | / | 9 |
| UUG fidelity | / | -5 | 7 | -3 | / |
| SIRT5 block | -5 | / | 1 | 1 | -17 |
| S100A4 MyoIIA | -4 | / | 2 | -4 | -3 |
| ERp5 block | -5 | / | 9 | 1 | 0 |

21. CN(C)c1ncc(S(=O)(=O)c2ccccc2)c(N)n1
22. COc1ccc(NC(=O)N(C)C[C@H]2OCCCC[C@H](C)Oc3ccc(NC(=O)CCC(F)(F)F)cc3C(=O)N([C@H](C)CO)C[C@@H]2C)cc1
23. O=C(O)c1ccccc1N/N=C/c1cc(Br)cc(Br)c1O
24. O=C(Cc1ccccc1)N/N=C/c1cc(Br)cc(Br)c1O
25. CCCC#Cc1ccc([C@H]2[C@@H](CO)N3C(=O)CN(C(=O)c4ccccc4)C[C@H]23)cc1

| assay / entry | 21 | 22 | 23 | 24 | 25 |
| --- | --- | --- | --- | --- | --- |
| FGF22 binding | 44* | 0 | 44* | 0 | / |
| PDI turbidity | 7 | / | 0 | -13 | / |
| UUG fidelity | -18 | 24 | -22 | -10 | / |
| SIRT5 block | 0 | 0 | -4 | 0 | -1 |
| S100A4 MyoIIA | 2 | 0 | 1 | 3 | 16 |
| ERp5 block | 3 | -4 | 6 | 2 | 1 |

26. O=C(c1cc2c(=O)n3ccccc3nc2s1)N1CCN(Cc2ccccc2)CC1
27. O=C(c1cc2c(=O)n3ccccc3nc2s1)N1CCN(Cc2ccc3c(c2)OCO3)CC1
28. COCC(=O)N1C[C@H]2[C@@H](c3ccccc31)[C@H](CO)N2C(=O)C1CCCC1
29. CCc1nc(SCC(=O)Nc2nc3c(s2)CCCC3)c2ccccc2n1
30. CCCc1nc(SCC(=O)Nc2nc3c(s2)CCCC3)c2ccccc2n1

| assay / entry | 26 | 27 | 28 | 29 | 30 |
| --- | --- | --- | --- | --- | --- |
| FGF22 binding | 0 | 43* | 0 | / | 0 |
| PDI turbidity | 18 | 0 | / | 5 | -1 |
| UUG fidelity | -2 | / | -4 | -8 | -11 |
| SIRT5 block | -6 | -18 | 1 | / | 16* |
| S100A4 MyoIIA | -2 | 1 | -1 | / | 4 |
| ERp5 block | 3 | 0 | -1 | / | -2 |

31. Cc1c(N2C(=O)C(=O)/C(=C(/O)c3ccc(Br)cc3)C2c2cccnc2)c(=O)n(-c2ccccc2)n1C (stereo unspecified)
32. O=C(Cn1nc(-c2ccc(Cl)cc2)ccc1=O)NCC1COCCO1 (stereo unspecified)
33. Cc1ccc(/C=N\NC(=O)COc2ccc(C)cc2[N+](=O)[O-])cc1
34. CO[C@@H]1CN(C)C(=O)c2cc(NC(C)=O)ccc2OC[C@@H](C)N(C(=O)c2ccccn2)C[C@@H]1C
35. N#CC(=C1Nc2ccccc2N1)S(=O)(=O)c1ccccc1

| assay / entry | 31 | 32 | 33 | 34 | 35 |
| --- | --- | --- | --- | --- | --- |
| FGF22 binding | 44* | -1 | 43* | 0 | 43* |
| PDI turbidity | 2 | -2 | -1 | / | -5 |
| UUG fidelity | / | 1 | / | -7 | -15 |
| SIRT5 block | -1 | 18* | -2 | -3 | 1 |
| S100A4 MyoIIA | 6 | 3 | -1 | 49 | -1 |
| ERp5 block | -5 | 1 | -1 | 5 | 0 |

36. CCN1C(=O)CS/C1=C(\C#N)S(=O)(=O)c1ccccc1
37. Cc1nnc(SCC(=O)Nc2ncc3c(n2)CC(c2ccccc2)CC3=O)s1 (stereo unspecified)
38. Cc1nnc(SCC(=O)Nc2ncc3c(n2)CCCC3=O)s1
39. CCOc1cc(/C=N/N=C2/NC(=O)C(CC(=O)O)S2)ccc1OCc1ccc(Cl)cc1 (stereo unspecified)
40. O=C(O)CC1S/C(=N/N=C/C2CC=CCC2)NC1=O (stereo unspecified)

| assay / entry | 36 | 37 | 38 | 39 | 40 |
| --- | --- | --- | --- | --- | --- |
| FGF22 binding | / | / | / | 0 | 0 |
| PDI turbidity | 0 | 14 | -11 | 10 | 11 |
| UUG fidelity | -17 | -11 | -16 | / | / |
| SIRT5 block | / | 28* | / | 6 | 112* |
| S100A4 MyoIIA | / | 0 | / | -1 | 3 |
| ERp5 block | / | 2 | / | -2 | -6 |

41. Cn1c(=O)n(C)c2cc(/C=N/N=C3/NC(=O)C(CC(=O)O)S3)ccc21 (stereo unspecified)
42. C[C@H](O)C#Cc1cnc2c(c1)C(=O)N([C@H](C)CO)C[C@H](C)[C@@H](CN(C)C(=O)c1ccc(F)cc1)O2
43. CN1CCN(C(=O)C[C@H]2C[C@@H]3c4cc(NC(=O)C5CCC5)ccc4O[C@@H]3[C@@H](CO)O2)CC1
44. CCCNC(=O)N1CC2(C1)[C@H](c1ccccc1)[C@@H](CO)N2Cc1ccccn1
45. COc1ccc(NC(=O)c2ccc(NC(=O)CN3CCN(c4ccc(O)cc4)CC3)cc2)cc1
46. CC(=O)c1ccccc1NC(=O)COC(=O)c1ccccc1NC(=O)c1ccccc1

| assay / entry | 41 | 42 | 43 | 44 | 45 | 46 |
| --- | --- | --- | --- | --- | --- | --- |
| FGF22 binding | 0 | 0 | 0 | 1 | 0 | 16* |
| PDI turbidity | 5 | / | / | / | 2 | 0 |
| UUG fidelity | / | 19 | / | / | 15 | / |
| SIRT5 block | 19* | -3 | -5 | 1 | 0 | 11 |
| S100A4 MyoIIA | -1 | 4 | 10 | 6 | -2 | 45 |
| ERp5 block | 0 | 5 | -9 | -1 | -11 | 3 |
